# Assay outcomes (PubChem BioAssay)
# Rows were chosen to be rich in hits. Some 3.6% of all compounds tested hit in one or more screens of this group.
# Rango complex inh = Rango-importin beta binding inhibition. Q14974. Rango CFP/YFP FRET sensor + importin beta, 45 min. Potency, µM (titrated, usually from 92.2 µM), without a hit: top-dose inhibition of complex formation. actives 0.031% (n = 340,000); calls by dose curve;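 note: potency is the fitted concentration of half-maximal effect; 0% = DMSO wells and 100% = buffer wells lacking importin beta; nearly all actives have a fitted effect of over 15% in size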
#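 Inhibition scored from the CFP 486 nm/YFP 530 nm FRET ratio 45 min after adding 0.125 microM importin beta to 50 nM Rango biosensor preincubated 5 min with compound (room temperature, PBS with DTT, Tween-20, BSA). No-importin wells as positive control.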
# KAT2A inh = blocks human GCN5L2 histone acetyltransferase; Q92830; GCN5L2 HAT assay, ThioGlo1 CoA-SH fluorescence; Potency, µM (titrated, usually from 58.9 µM), for the others: top-dose activity change, negative = inhibition, usual class: inhibitors; actives 0.21% (n = 390,000); note: potency is the fitted concentration of half-maximal effect; % is set by controls: 0 for no effect and ±100 for the full control effect
#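 Compounds, pin-transferred from DMSO stocks, meet 20nM GCN5L2 for 15 min before the reaction begins with H3(1-25) peptide (75uM) and acetyl-CoA (70uM). Thiol-reactive ThioGlo1 reports CoA release over 20 min at room temperature.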
# Rango dissoc inh = prevents RanGTP from dissociating the Rango-importin beta complex; O95149+P62826; Biochemical FRET Rango-importin beta, RanGTP-induced dissociation; Potency, µM (series often up to 46.1 µM), for inactives: at the highest dose activity change, negative = inhibition; actives 0.071% (n = 340,000); AID 540253; calls by dose curve; note: potency is the fitted concentration of half-maximal effect; % of control where 0% means no effect; nearly all actives have a fitted effect of over 45% in size
#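 Quantitative HTS using a FRET biosensor: 0.1 uM Rango, 0.25 uM importin beta, 0.6 uM Ran, 2 mM GTP, 0.2 uM RCC1 final, PBS with DTT, Tween-20 and BSA. Post-read taken 45 min after Ran addition.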
# PI5P4K alpha inh = inhibitors of human PI5P4K alpha; P48426; PI5P4Kalpha enzyme, ADP-Glo luminescence, 60 min; stronger effect = lower value; max response, %; actives 1.2% (n = 330,000); AID 652105; active = max response of -50% or lower; inconclusive = between -30% and -50%; inactive = -30% or higher; note: value at the top dose of about 77 µM; % is set by controls: 0 for no effect and ±100 for the full control effect
#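 qHTS, 1536-well: enzyme/substrate mix, compound by pin tool, 5 microM ATP final; RT 60 min; ADP-Glo reagents 1 (45 min) then 2 (30 min); luminescence.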
# PLK1 PBD block = PLK1 (human) polo-box domain binding inhibition. P53350. Plk1 PBD binding of FITC phosphopeptide, fluorescence polarization. Potency, µM, for inactives: max response, negative = inhibition, hits mostly inhibitors. actives 2.8% (n = 360,000); note: potency is the fitted concentration of half-maximal effect; series mostly up to about 57 µM; % is set by controls: 0 for no effect and ±100 for the full control effect; nearly all actives have a fitted effect of over 65% in size
# VDR inhibitor = inhibitors of human vitamin D receptor | Potency, µM, inactives show max response, negative = inhibition, usual class: inhibitors | VDR-SRC2-3 peptide fluorescence polarization, 2 h | AID 504847 | actives 0.93% (n = 400,000); note: potency is the fitted concentration of half-maximal effect; % is set by controls: 0 for no effect and ±100 for the full control effect
#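 FP read-out; VDR + SRC2-3 coactivator peptide; 23 nl compound by pintool; 2 h RT incubation; reagents held at 4 deg C, protected from light.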
# An asterisk follows results filed as active; u = inconclusive; x = no result; [ ] = dose if it differs, or a comment. Unless noted, calls come from the whole dose curve; as a rule, active = well fitted curve in the direction sought with a large enough effect; inconclusive = small, poorly fitted or top-dose-only effect, or another doubt; inactive = no such curve, though single readings can be large; an effect the other way counts as inactive or inconclusive.
# Field names – A = Rango complex inh; B = KAT2A inh; C = Rango dissoc inh; D = PI5P4K alpha inh; E = PLK1 PBD block; F = VDR inhibitor
1	Cc1cccc2sc(N(Cc3cccnc3)C(=O)c3cccs3)nc12
  A: x	B: -9%	C: x	D: x	E: x	F: 24%

2	COC(=O)c1sc(N2C(=O)C(O)=C(C(=O)c3ccc(C)o3)C2c2ccco2)nc1C (stereo unspecified)
  A: u	B: -22%	C: u	D: -18	E: 30µM*	F: -12%

3	COC(=O)c1sc(N2C(=O)C(O)=C(C(=O)c3ccc(C)o3)C2c2cccs2)nc1C (stereo unspecified)
  A: u	B: -28%	C: u	D: -29	E: 27µM*	F: -15%

4	COC(=O)c1sc(N2C(=O)C(O)=C(C(=O)c3ccc(C)o3)C2c2ccc(F)cc2)nc1C (stereo unspecified)
  A: u	B: -21%	C: u	D: x	E: u	F: -8%

5	Cc1cccn2c(=O)cc(COc3cccc(NC(=O)COc4ccccc4)c3)nc12
  A: x	B: -4%	C: x	D: x	E: x	F: 17%

6	O=C(Nc1nc(-c2ccccc2)c(-c2ccccc2)o1)c1ccc(F)cc1
  A: 1%	B: -4%	C: 13%	D: -26	E: 3µM*	F: -9%

7	Cc1ccc(CCC(=O)Nc2ccc(CC(=O)O)cc2)o1
  A: 1%	B: -5%	C: -15%	D: -24	E: 12µM*	F: 79µM*

8	CCOC(=O)c1ncc2[nH]c3cccc(OC(C)C)c3c2c1C
  A: x	B: 3%	C: x	D: x	E: x	F: -14%

9	CCc1nn2c(=O)cc(COC(=O)c3ccccc3NC(=O)C3CCCCC3)nc2s1
  A: x	B: 5%	C: x	D: x	E: x	F: 8%

10	Cc1ccc(-c2[nH][nH]c(=O)c(=O)c2N=Nc2ccccc2)cc1
  A: 0%	B: -5%	C: 0%	D: -1	E: 30µM*	F: -18%

11	Cc1cc(=O)n2[nH]c(=O)c(N=Nc3ccccc3)c2[nH]1
  A: -1%	B: u	C: 16%	D: -19	E: -5%	F: 7%

12	CCOC(=O)c1ccc(NC(=O)COCc2cc(-c3ccc4c(c3)OCO4)on2)cc1
  A: x	B: -4%	C: x	D: x	E: x	F: 0%

13	CC1CCC(NC(=O)CNC(=O)Cc2cccc3ccccc23)CC1 (stereo unspecified)
  A: -6%	B: -15%	C: 0%	D: -9	E: 24µM*	F: u

14	COCCCn1c(SCC(=O)Nc2sc3c(c2C#N)CCCC3)nnc1-c1ccncc1
  A: 1%	B: -6%	C: -14%	D: u	E: 27µM*	F: 0%

15	CN(C)C(=O)NC(Nc1cccc([N+](=O)[O-])c1)C(Cl)(Cl)Cl (stereo unspecified)
  A: 0%	B: -2%	C: -7%	D: -9	E: 30µM*	F: -22%

16	O=C(N/N=C/c1c(O)ccc2ccccc12)Nc1ccccc1
  A: 65µM*	B: x	C: u	D: -3	E: 0%	F: -15%

17	O=C(CSCC(=O)Nc1ccccc1)N/N=C/c1c(O)ccc2ccccc12
  A: u	B: -10%	C: u	D: x	E: -2%	F: 9%

18	O=S(=O)(/N=C/c1c(O)ccc2ccccc12)c1ccccc1
  A: -3%	B: -5%	C: -21%	D: -1	E: 15µM*	F: -4%

19	O=C(O)c1cc(N/N=C/c2c(O)ccc3ccccc23)ccc1Cl
  A: u	B: -14%	C: -26%	D: -12	E: 17µM*	F: u

20	Cc1ccc2occ(CC(=O)Nc3ccc(S(=O)(=O)N4CCC(C)CC4)cc3)c2c1
  A: x	B: -9%	C: x	D: x	E: x	F: -11%

21	N#Cc1ccc2c(c1)C[C@]1(CCCCN3C(=O)c4ccccc4C3=O)Oc3c(c(=O)oc4ccc(F)cc34)C2O1
  A: x	B: -9%[12.7 µM]	C: x	D: x	E: x	F: x

22	CS(=O)(=O)Nc1ccc(-c2nc3ccccc3s2)cc1
  A: x	B: -12%	C: x	D: x	E: x	F: 8%

23	CN1CC(O)(C(O)C(O)C(O)CO)SC1=S (stereo unspecified)
  A: x	B: x	C: x	D: -2	E: 21µM*	F: x

24	O=C(NC1CCCCC1)C(c1ccccc1F)n1c(=O)c(-c2ccco2)nc2ccccc21 (stereo unspecified)
  A: x	B: x	C: x	D: -69*	E: -22%	F: x

25	CCCCCNC(=O)C(c1ccccc1F)n1c(=O)c(-c2ccco2)nc2ccccc21 (stereo unspecified)
  A: x	B: x	C: x	D: -64*	E: u	F: x

# Reformatted bar-delimited: part of the list above.
entry | Structure | Rango complex inh | KAT2A inh | Rango dissoc inh | PI5P4K alpha inh | PLK1 PBD block | VDR inhibitor
24 | O=C(NC1CCCCC1)C(c1ccccc1F)n1c(=O)c(-c2ccco2)nc2ccccc21 (stereo unspecified) | x | x | x | -69* | -22% | x
25 | CCCCCNC(=O)C(c1ccccc1F)n1c(=O)c(-c2ccco2)nc2ccccc21 (stereo unspecified) | x | x | x | -64* | u | x

# Continued.
# Field names – A = Rango complex inh; B = KAT2A inh; C = Rango dissoc inh; D = PI5P4K alpha inh; E = PLK1 PBD block; F = VDR inhibitor
26	O=C(NC1CCCCC1)C(c1ccc(-c2ccccc2)cc1)n1c(=O)c(-c2ccco2)nc2ccccc21 (stereo unspecified)
  A: x	B: x	C: x	D: -92*	E: u	F: x

27	FC(F)(F)c1nnc(-c2ccccc2)nc1Sc1ccc(Cl)cc1
  A: 0%	B: -2%	C: 15%	D: 2	E: -30%	F: 71µM*

28	CC(C)CCNC(=O)c1ccc(Cn2c(=O)c3cccn3c3cccnc32)cc1
  A: x	B: -12%	C: x	D: x	E: x	F: 6%

29	CCOc1ccc(NC(=O)c2sc3nc(N4CCOCC4)c4c(c3c2N)CCCC4)cc1
  A: -4%	B: -3%	C: 0%	D: -8	E: 30µM*	F: -27%

30	Cc1ccc(C(=O)c2oc3ccccc3c2NC(=O)c2nc(S(C)(=O)=O)ncc2Cl)cc1F
  A: x	B: -10%	C: x	D: x	E: x	F: -1%

31	CCOC(=O)c1c(NC(=O)c2cc3nc(-c4ccccc4)cc(C(F)(F)F)n3n2)sc2c1CCC(C)C2 (stereo unspecified)
  A: x	B: -3%	C: x	D: x	E: x	F: -7%

32	Cc1cc(/C=C2/C(=N)N3C(=NC2=O)SN=C3S(C)(=O)=O)c(C)n1-c1ccccc1F
  A: u	B: 22µM*	C: u	D: -62*	E: u	F: u

33	CS(=O)(=O)C1=NSC2=NC(=O)/C(=C\c3cccn3-c3ccc(Cl)cc3)C(=N)N21
  A: u	B: -23%	C: u	D: -81*	E: 21µM*	F: u

34	CCc1nc2nc(C)cc(Nc3cc(C)ccc3C)n2n1
  A: x	B: -1%	C: x	D: x	E: x	F: 5%

35	O=c1ccccn1Cc1c(F)cccc1Cl
  A: u	B: -1%	C: 0%	D: u	E: 3.4µM*	F: -21%

36	CN(C)c1ccc(-c2cc(Nc3ccc(F)cc3)ncn2)cc1
  A: x	B: u	C: x	D: x	E: x	F: 45µM*

37	CN(C)C(=O)c1ccc(-c2cc(-n3ccnc3)ncn2)cc1
  A: x	B: -23%	C: x	D: x	E: x	F: -4%

38	CN(C)c1ccc(-c2cc(-n3ccnc3)ncn2)cc1
  A: x	B: -16%	C: x	D: x	E: x	F: 50µM*

39	CCOC(=O)c1cc(-c2ccccc2)n(CCCC(=O)Nc2cc(C)ccc2OC)c1C
  A: x	B: -6%	C: x	D: x	E: x	F: 7%

40	COc1cc2oc(=O)cc(-c3ccc(-c4sccc4C=O)cc3)c2c(OC)c1OC
  A: x	B: -2%	C: x	D: x	E: x	F: -16%

41	Cc1ccc(C(=O)CCC(=O)OCc2nnc(-c3ccccc3)o2)cc1
  A: 1%	B: u	C: 22%	D: 6	E: -2%	F: -2%

42	O=C(CCC(=O)c1cccs1)OCc1nnc(-c2ccccc2)o1
  A: 6%	B: -2%	C: 6%	D: -9	E: 27µM*	F: -13%

# Just KAT2A inh, VDR inhibitor and PLK1 PBD block (three entries from above):
no.	molecule	KAT2A inh	VDR inhibitor	PLK1 PBD block
37	CN(C)C(=O)c1ccc(-c2cc(-n3ccnc3)ncn2)cc1	-23%	-4%	x
38	CN(C)c1ccc(-c2cc(-n3ccnc3)ncn2)cc1	-16%	50µM*	x
39	CCOC(=O)c1cc(-c2ccccc2)n(CCCC(=O)Nc2cc(C)ccc2OC)c1C	-6%	7%	x
